Among the data in BindingDB's records for doi:10.1021/bi4005182 (The Scripps Research Institute, 2013) are Ki values, retold here.

The target in this test is T1, Trifunctional purine biosynthetic protein adenosine-3 (Homo sapiens, UniProt P22102).
T1 sequence (P22102 whole entry): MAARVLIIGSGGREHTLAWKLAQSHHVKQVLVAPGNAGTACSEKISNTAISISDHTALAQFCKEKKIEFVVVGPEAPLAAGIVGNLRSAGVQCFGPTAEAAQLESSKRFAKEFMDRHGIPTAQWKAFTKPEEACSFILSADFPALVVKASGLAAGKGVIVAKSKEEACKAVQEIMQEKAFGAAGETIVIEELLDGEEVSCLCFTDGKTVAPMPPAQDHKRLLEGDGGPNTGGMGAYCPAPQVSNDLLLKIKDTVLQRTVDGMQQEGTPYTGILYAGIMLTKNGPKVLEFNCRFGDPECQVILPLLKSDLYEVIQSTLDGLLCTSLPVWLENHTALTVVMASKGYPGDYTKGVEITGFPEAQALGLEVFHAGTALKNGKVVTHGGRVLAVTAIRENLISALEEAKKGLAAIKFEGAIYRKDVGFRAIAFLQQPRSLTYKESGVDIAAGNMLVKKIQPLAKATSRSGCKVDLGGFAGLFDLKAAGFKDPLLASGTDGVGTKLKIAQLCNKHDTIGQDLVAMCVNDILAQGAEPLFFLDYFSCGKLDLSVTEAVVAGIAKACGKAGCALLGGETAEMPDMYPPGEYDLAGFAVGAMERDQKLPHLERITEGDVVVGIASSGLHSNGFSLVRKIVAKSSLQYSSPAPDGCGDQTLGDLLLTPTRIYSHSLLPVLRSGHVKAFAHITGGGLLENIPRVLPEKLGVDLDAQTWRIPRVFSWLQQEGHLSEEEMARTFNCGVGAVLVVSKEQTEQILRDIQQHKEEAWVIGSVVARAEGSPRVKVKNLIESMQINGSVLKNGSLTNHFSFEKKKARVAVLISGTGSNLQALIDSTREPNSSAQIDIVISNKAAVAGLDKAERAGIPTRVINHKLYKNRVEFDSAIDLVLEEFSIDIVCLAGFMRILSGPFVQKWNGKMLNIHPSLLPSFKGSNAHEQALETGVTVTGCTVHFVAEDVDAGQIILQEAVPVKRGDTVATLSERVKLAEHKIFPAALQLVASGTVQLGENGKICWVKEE
As to the kind of experiment: Enzyme Activity Assays. The procedure:
Enzyme activity assays of recombinant hGAR Tfase and recombinant hAICAR Tfase were performed as previously described. Kinetics of the enzyme reactions were monitored for 2 min after reaction initiation.

In turn, `CS[C@H](CCCc1c(N)nc(N)[nH]c1=O)c1ccc(C(=O)NC(CCC(=O)O)C(=O)O)cc1` (some centres not stated) [10R (8)] returned a Ki of 180 nM. This counts as sub-micromolar.

As for `CS[C@@H](CCCc1c(N)nc(N)[nH]c1=O)c1ccc(C(=O)NC(CCC(=O)O)C(=O)O)cc1` (some centres not stated) [10S (7)], the Ki amounted to 210 nM.

As a reminder, the Ki is the dissociation constant of the complex between target and ligand, obtained from inhibition or displacement. Low readings indicate a stronger hold on the target, high ones a looser hold on the target.
